From ChEMBL document CHEMBL1828559, “Synthesis and characterization of high-affinity 4,4-difluoro-4-bora-3a,4a-diaza-s-indacene-labeled fluorescent ligands for human β-adrenoceptors” (J Med Chem, 2011)

By UniProt entry, the sequences of proteins in these tests, tags left out.
UniProt P08588, whole entry: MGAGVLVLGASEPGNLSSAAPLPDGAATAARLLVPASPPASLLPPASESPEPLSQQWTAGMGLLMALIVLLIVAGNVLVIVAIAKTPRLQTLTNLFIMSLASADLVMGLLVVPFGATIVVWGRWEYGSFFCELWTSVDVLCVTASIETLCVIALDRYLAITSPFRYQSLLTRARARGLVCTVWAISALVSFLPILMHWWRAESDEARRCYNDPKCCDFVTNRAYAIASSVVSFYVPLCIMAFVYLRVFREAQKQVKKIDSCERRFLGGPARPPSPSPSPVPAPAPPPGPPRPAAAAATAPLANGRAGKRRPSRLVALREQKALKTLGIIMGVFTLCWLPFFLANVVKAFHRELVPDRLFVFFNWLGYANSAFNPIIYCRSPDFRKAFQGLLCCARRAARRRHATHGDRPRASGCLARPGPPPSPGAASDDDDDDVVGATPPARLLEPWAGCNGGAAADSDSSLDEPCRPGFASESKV

Biological target: Beta-1 adrenergic receptor (Homo sapiens, UniProt P08588)
Test: Antagonist activity at human beta-1 adrenergic receptor site 1 expressed in cimeterol-stimulated CHO-K1 cells assessed as CRE-SPAP level by […]
Assay type: functional, cell-based

C=CCc1ccccc1OCC(O)CNC(C)C (stereo unspecified) [ALPRENOLOL]
Kd: 4.27 nM
